# Experimental water solubility values from OPERA 2.9

Values as listed in the OPERA 2.9 repository of K. Mansouri.

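The OPERA project collected these measurements from public sources as training and test data for property models. One number stands for a compound and property, with no spread given. How each value was measured is not recorded, so precision varies. Where a salt, mixture or single isomer is drawn, the source does not say that exactly this form was tested. Some upstream entries may be estimates or bounds without being marked so.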

Solubility in water is on a log10 molar scale (set defined at 25 °C).
Cells with "n/a" have no entry in this list.

| SMILES | name | log solubility (log10 mol/L) |
|---|---|---|
| COc1cc(C)ccc1O | 2-Methoxy-4-methylphenol | -1.82 |
| NC(=O)CC(O)(CC(N)=O)C(N)=O | Citramide | -0.845 |
| Cc1ccc(C2OC[C@@H]3OC(c4ccc(C)c(C)c4)O[C@H]([C@H](O)CO)[C@@H]3O2)cc1C (stereo partly drawn) | 1,3:2,4-Bis(3,4-dimethylbenzylidene)-D-sorbitol | -6.94 |
| O=C1O[C@H]([C@@H](O)CO)C(O)=C1Nc1ccc(S(=O)(=O)c2ccc(NC3=C(O)[C@@H]([C@@H](O)CO)OC3=O)cc2)cc1 | Bis(4-L-ascorbamidophenyl) sulfone | -5.15 |
| N[C@@H](CCSSCC[C@H](N)C(=O)O)C(=O)O | n/a | -3.13 |
| CCOC(=O)CCN(C(=O)c1ccc(NC)c(N)c1)c1ccccn1 | n/a | -2.316 |
| CC(C)[C@H]1CC=C(CCC=O)CC1 | 3-[(4R)-4-(Propan-2-yl)cyclohex-1-en-1-yl]propanal | -3.718 |
| CCN(CC)c1ccc(C(O)(c2ccc(N(CC)CC)cc2)c2ccc(N(CC)CC)cc2)cc1 | n/a | -8.047 |
| CC/C=C\CCOC(C)=O | (3Z)-3-Hexenyl acetate | -2.096 |
| Nc1ccccc1-c1cc(F)c(F)c(F)c1 | 3',4',5'-Trifluoro[1,1'-biphenyl]-2-amine | -3.654 |
| CC(=O)OCC=Cc1ccccc1 | 3-Phenylprop-2-en-1-yl acetate | -2.75 |
| CCc1c(Cl)cc(NC(=O)C(CC)Oc2ccc(C(C)(C)CC)cc2C(C)(C)CC)c(O)c1Cl (stereo unspecified) | n/a | -6.52 |
| Cc1nc2n(c(=O)c1CCN1CCC(c3noc4cc(F)ccc34)CC1)CCC[C@H]2O | 9-Hydroxy-risperidone | -3.157 |
| CCOC(=O)C(Cc1cc(I)c(Oc2ccc(OC)cc2)c(I)c1)NC(C)=O (stereo unspecified) | Ethyl N-acetyl-3,5-diiodo-O-(4-methoxyphenyl)tyrosinate | -6.151 |
| Clc1ccc(Oc2cc(Cl)ccc2Cl)c(Cl)c1 | n/a | -6.77 |
| O=C(O)[C@H](CC(=O)N1C[C@H]2CCCC[C@H]2C1)Cc1ccccc1 | Mitiglinide | -3.649 |
| CC1=CC(C)=Nc2ccccc2N1 | 2,4-Dimethyl-1H-1,5-benzodiazepine | -1.367 |
| CO[C@@H]1C[C@H](C)CC[C@H]1C(C)C | n/a | -3.93 |
| CNc1ccc(O)c2c1C(=O)c1c(O)ccc(NC)c1C2=O | C.I. Disperse Blue 26 | -7.17 |
| C[C@]12CC[C@H]3[C@@H]([C@H]4C[C@H]4[C@]4(O)C[C@@H](O)CC[C@]34C)[C@@H]1[C@@H]1C[C@@H]1[C@@]2(O)CCCO | n/a | -3.048 |
| COc1ccc(C2C(=O)c3ccccc3C2=O)cc1 | Anisindione | -4.295 |
| CCCCOC(=O)CCS | Butyl 3-mercaptopropionate | -2.228 |
| c1ccc(-c2ccc(-c3nc(-c4ccc(-c5ccccc5)cc4)nc(-c4ccc(-c5ccccc5)cc4)n3)cc2)cc1 | Tris-biphenyl triazine | -10.25 |
| Nc1nc(=O)c2nc(CNc3ccc(C(=O)N[C@@H](CCC(=O)O)C(=O)O)cc3)cnc2[nH]1 | Folic acid | -5.44 |
| NC(=O)C(O)C(O)C(=O)O (stereo unspecified) | 4-Amino-2,3-dihydroxy-4-oxobutanoic acid | -0.569 |
| CCCCCCCCCCCC(=O)OCC(C)C | Isobutyl laurate | -7.932 |
| CC(CC(C)C)=NNC(=O)c1cc2ccccc2cc1O | N'-(1,3-Dimethylbutylidene)-3-hydroxy-2-naphthohydrazide | -4.813 |
| CCCCC(CC)C(=O)OCC(COC(=O)C(CC)CCCC)OC(=O)C(CC)CCCC (stereo unspecified) | 2-Ethylhexanoic acid triglyceride | -6.974 |
| C/C=C/C1CCC(C2CCC(CCC)CC2)CC1 (stereo partly drawn) | 4-[(1E)-Prop-1-en-1-yl]-4'-propyl-1,1'-bi(cyclohexane) | -6.632 |
| Clc1cccc(Oc2ccc(Cl)c(Cl)c2Cl)c1 | n/a | -7.09 |
| CCCCCN(CCCCC)C(=S)[S-].CCCCCN(CCCCC)C(=S)[S-].[Zn+2] | Zinc bis(N,N-dipentyldithiocarbamate) | -6.79 |
| CCCCCCC(=O)OCC(COC(=O)CCCCCC)(COC(=O)CCCCCC)COC(=O)CCCCCC | n/a | -7.068 |
| NC(N)=Nc1nc(CSCCC(N)=NS(N)(=O)=O)cs1 | Famotidine | -2.57 |
| Nc1ccc(-c2ccc(N)cc2S(=O)(=O)O)c(S(=O)(=O)O)c1 | 2,2'-Benzidinedisulfonic acid | -2.62 |
| CN(C)S(=O)(=O)c1ccc2c(c1)N(CCCN1CCC(CCO)CC1)c1ccccc1S2 | Pipotiazine | -4.573 |
| Cc1c(N=Nc2ccc(Cl)c(Cl)c2)c(O)n(C)c(=O)c1C#N | C.I. Disperse Yellow 241 | -6.926 |
| CS(=O)(=O)OCCCCOS(C)(=O)=O | Busulfan | -2.267 |
| C=CC1CCC(C=C)C(C=C)C1 (stereo unspecified) | Cyclohexane, 1,2,4-triethenyl- | -6.173 |
| Cc1cc(C)c(O)c(-c2cc(C)cc(C)c2O)c1 | [1,1'-Biphenyl]-2,2'-diol, 3,3',5,5'-tetramethyl- | -5.44 |
| C[C@]12CCC(=O)C=C1CC[C@@H]1[C@@H]2CC[C@@]2(C)[C@H]1CC[C@@]2(O)CCCO | (17beta)-17-Hydroxy-17-(3-hydroxypropyl)androst-4-en-3-one | -3.754 |
| C[C@H](CCC(=O)NCCS(=O)(=O)O)[C@H]1CC[C@H]2[C@@H]3CC[C@@H]4C[C@H](O)CC[C@]4(C)[C@H]3C[C@H](O)[C@]12C | Taurodesoxycholic acid | -1.086 |
| CC(C)(C)COC(=N)O | 2,2-Dimethylpropyl hydrogen carbonimidate | -0.8 |
| C=CCCCCCCCC(=O)N(C)C | 9-Decenamide, N,N-dimethyl- | -2.198 |

Again, the 3 entries with the lowest log solubility:

| SMILES | name | log solubility (log10 mol/L) |
|---|---|---|
| c1ccc(-c2ccc(-c3nc(-c4ccc(-c5ccccc5)cc4)nc(-c4ccc(-c5ccccc5)cc4)n3)cc2)cc1 | Tris-biphenyl triazine | -10.25 |
| CCN(CC)c1ccc(C(O)(c2ccc(N(CC)CC)cc2)c2ccc(N(CC)CC)cc2)cc1 | n/a | -8.047 |
| CCCCCCCCCCCC(=O)OCC(C)C | Isobutyl laurate | -7.932 |